Experiment: Toxicity in po dosed albino Icem-CET (SPF Caw) mouse assessed as mortality measured after 24 to 72 hrs
Type: organism-based
Conditions: in vivo

## O=C1NC(=O)C(c2ccccc2)(c2ccccc2)N1 [PHENYTOIN]
  LD50: 200 mg/kg
